From publication PMC5794259, “Novel ATP-cone-driven allosteric regulation of ribonucleotide reductase via the radical-generating subunit” (eLife, 2018)

Protein sequences, listed by entry. Tags and fused reporters are not part of them.
UniProt A3XHF9, entry or part of it: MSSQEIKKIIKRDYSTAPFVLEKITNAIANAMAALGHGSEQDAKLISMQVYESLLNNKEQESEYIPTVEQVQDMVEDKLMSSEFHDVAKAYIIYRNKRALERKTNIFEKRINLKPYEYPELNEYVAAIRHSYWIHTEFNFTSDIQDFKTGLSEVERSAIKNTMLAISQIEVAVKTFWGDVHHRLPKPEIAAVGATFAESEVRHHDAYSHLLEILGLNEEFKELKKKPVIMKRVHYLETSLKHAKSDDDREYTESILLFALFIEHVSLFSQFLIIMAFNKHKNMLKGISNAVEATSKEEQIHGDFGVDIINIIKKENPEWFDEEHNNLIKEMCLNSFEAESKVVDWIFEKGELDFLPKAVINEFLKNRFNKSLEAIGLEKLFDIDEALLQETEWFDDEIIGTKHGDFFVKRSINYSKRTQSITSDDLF

Target: NrdB (Leeuwenhoekiella blandensis, UniProt A3XHF9)
Assay: Isothermal titration calorimetry (ITC), nucleotide binding to NrdB
Settings: 10°C, one-set-of-sites model
Protocol: Isothermal titration calorimetry (ITC) experiments were carried out on a MicroCal PEAQ-ITC system (Malvern Instruments Ltd) in a buffer containing 25 mM HEPES (pH 7.65), 150 mM NaCl, and 10% glycerol, 2 mM tris(2-carboxyethyl)phosphine, and 5 mM MgCl2. Measurements were done at 10°C. The initial injection volume was 0.4 μl over a duration of 0.8 s. All subsequent injection volumes were 2–2.5 μl over 4–5 s with a spacing of 150 s between the injections. Data for the initial injection were not considered. For dATP binding analysis, the concentration of NrdB in the cell was 12 µM and dATP in syringe 120 or 140 µM. Reverse titrations were performed with 113 µM NrdB in the syringe and 12 or 30 µM dATP in the cell. For titration of dATP into NrdB∆99, protein concentration in the cell and dATP concentration in the syringe were 50 µM and 900 µM respectively. For dADP binding analysis, the NrdB concentration in the cell was 20–50 µM and ligand concentrations in the syringe were 500–750 µM. For titration of ATP into NrdB, cell and syringe concentrations were 50 and 1600 µM respectively. The data were analyzed using the built-in one set of sites model of the MicroCal PEAQ-ITC Analysis Software (Malvern Instruments Ltd). A fixed ligand/protein stoichiometry of 2 was used for dATP to NrdB titrations. […]

Substance: dADP
- Kd: 15 ± 1.5 µM
